Test results published in PubChem BioAssay AID624173 (National Center for Advancing Translational Sciences (NCATS), 2012).
This is a selection; strong and weak results do not stand in their true shares. Activity calls are given as the source filed them. The call rests on the fitted dose curve; in most records, active means well fitted inhibition curve with a large enough effect; inconclusive means small, poorly fitted or top-dose-only effect; inactive means flat fitted curve, though single readings scatter.

Molecular target: pyruvate kinase (Trypanosoma brucei) (UniProt Q57TT1)
Assay: qHTS of Trypanosoma Brucei Inhibitors; further: nearly all actives have a fitted effect of over 50% in size
Details: TbPYK enzyme, Kinase-Glo Plus ATP luminescence, 45 min
On the % scale 0 is the no-effect control and ±100 the full control effect.

SMILES	activity, negative = inhibition (at 76.8 µM (top of the series))	activity, negative = inhibition (at 157 µM (top of the series))
CCC(=O)N(c1ccccc1)C1(COC)CCN(CCn2nnn(CC)c2=O)CC1	inactive: 5.49%	inactive: 0%
CCC(=O)N(c1ccccc1)C1(COC)CCN(CCc2cccs2)CC1	inactive: 0.552%	inactive: -12.2%
CN(CCCl)CCCl	inactive: 1.94%	–
